Measured values: ChEMBL document CHEMBL3627660, “Tetrafluorophenoxymethyl ketone cruzain inhibitors with improved pharmacokinetic properties as therapeutic leads for Chagas' disease” (Bioorg Med Chem Lett, 2015)

By UniProt entry, the sequences of proteins in these tests, tags left out. Where a name states a change or a piece, a line headed by the entry shows the natural chain unless it says otherwise.
UniProt P25779: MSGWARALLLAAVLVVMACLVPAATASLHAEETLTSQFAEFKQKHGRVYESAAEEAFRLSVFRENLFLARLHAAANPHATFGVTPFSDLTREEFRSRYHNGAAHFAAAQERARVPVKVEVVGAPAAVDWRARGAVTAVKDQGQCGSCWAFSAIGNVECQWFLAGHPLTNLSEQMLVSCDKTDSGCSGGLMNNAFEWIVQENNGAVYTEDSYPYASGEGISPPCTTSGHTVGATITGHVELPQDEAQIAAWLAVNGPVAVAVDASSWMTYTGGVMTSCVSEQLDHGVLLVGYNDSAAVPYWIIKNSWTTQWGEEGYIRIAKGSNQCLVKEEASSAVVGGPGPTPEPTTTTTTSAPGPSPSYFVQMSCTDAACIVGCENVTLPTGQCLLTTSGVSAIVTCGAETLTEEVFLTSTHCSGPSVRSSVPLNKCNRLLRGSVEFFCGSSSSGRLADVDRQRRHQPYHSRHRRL

Target: Cruzipain (Trypanosoma cruzi, UniProt P25779)
Test: Inhibition of Trypanosoma cruzi recombinant cruzain using Z-FR-AMC as substrate after 5 mins by fluorescence assay

SMILES: CCCCC(C(=O)COc1c(F)c(F)cc(F)c1F)n1cc([C@@](C)(NCc2ccc3ncccc3c2)C(C)C)nn1 (stereo partly specified)
- IC50: 370 nM
